PMC9394474 (2022)

Biological target: human hisTRIM7- (human, UniProt Q9C029 342-511)
Experiment: ITC

B1: rbGYG1 VR-CIV (domain or fragment)
chain: NVWWDIFTTSVVPLLQQFGLVQDTCSYQHVEDVSGAVSHLSLGETPATTQPFVSSEERKERWEQGQADYMGADSFDNIKKKLDTYLQ
**Q.** Which Kd does the source give for B1 here?
**A.** 2600 nM
